# Results reported in US20150011566A1, “N-PHENYLPIPERAZINE DERIVATIVES THAT ARE ANTAGONISTS OF A1A, A1D ADRENOCEPTORS AND 5-HT1A RECEPTORS FOR THE TREATMENT OF BENIGN PROSTATE HYPERPLASIA, PHARMACEUTICAL COMPOSITIONS CONTAINING THE SAME” (UNIVERSIDADE FEDERAL DO RIO DE JANEIRO-UFRJ, priority 2012, published 2015).
# Amino acid sequences for entries named in this document (tags omitted).
# UniProt P19327, whole entry: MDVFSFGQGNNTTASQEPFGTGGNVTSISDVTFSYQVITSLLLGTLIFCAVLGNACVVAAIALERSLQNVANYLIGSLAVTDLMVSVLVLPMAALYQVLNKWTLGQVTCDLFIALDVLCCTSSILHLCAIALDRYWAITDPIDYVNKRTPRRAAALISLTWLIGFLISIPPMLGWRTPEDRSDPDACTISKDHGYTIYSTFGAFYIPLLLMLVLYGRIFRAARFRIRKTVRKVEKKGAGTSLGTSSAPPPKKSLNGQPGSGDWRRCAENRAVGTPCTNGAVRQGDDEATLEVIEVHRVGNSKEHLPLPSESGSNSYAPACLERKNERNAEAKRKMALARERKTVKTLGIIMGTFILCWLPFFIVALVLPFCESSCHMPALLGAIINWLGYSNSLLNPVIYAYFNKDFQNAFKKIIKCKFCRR
# Key:
# [1] = target: T1, 5-HT1A receptors (Rattus norvegicus, UniProt P19327); assay: Binding of [3H]p-MPPF with GTP to 5-HT1A receptors; intrinsic activity (Ki low/Ki high); conditions: read-out: Ki low; Table 13; antagonist radioligand [3H] p-MPPF in the presence of GTP
# T1 construct: Intrinsic Activity at Native 5-HT1A Receptors; from tissue; host or cells: rat hippocampus membranes
# Experimental: (§1) Membrane preparations of rat hippocampus according to previously described by HALL et al (1985) and PEROUTKA (1986) were performed. The homogenization and centrifugation steps were performed identically to that described above for receptors α2A and 5-HT2A receptors.
# (§2) The binding assays for the 5-HT1A receptors were performed as described previously in the literature and previously standardized in the laboratory through saturation experiments. […] (solvent for dilution of LDT's) for the determination of total binding, or 50 μL non-radioative serotonin at 10 μM to determine the non-specific binding (final volume of 500 μL). Assays were performed in triplicate. […] Assays were performed in triplicate.
# After the incubation period, the reaction was stopped by adding 4 ml of ice-cold solution containing 5 mM Tris (pH 7.4), followed by vacuum filtration on glass fiber filter (GMF 3, Filtrak®) previously soaked with solution 0.5% polyethylenoimine. The filters were washed three times with 4 mL of ice-cold solution containing 5 mM Tris (pH 7.4) under vacuum to remove all free radioligand. […] The radioactivity retained on the filters was then determined in a liquid scintillation counter (Packard Tri-Carb 1600 TR). […] For these receptors were also determined the […] and Ki parameters. […]
# [2] = target: T1, 5-HT1A receptors; assay: Binding of [3H]-8-OH-DPAT to 5-HT1A receptors (rat hippocampus membranes); conditions: Ki high (nM), Table 13; agonist radioligand [3H] 8-OH-DPAT
# Experimental: as §1, §2
# After the incubation period, the reaction was stopped by adding 4 ml of ice-cold solution containing 5 mM Tris (pH 7.4), followed by vacuum filtration on glass fiber filter (GMF 3, Filtrak®) previously soaked with solution 0.5% polyethylenoimine. The filters were washed three times with 4 mL of ice-cold solution containing 5 mM Tris (pH 7.4) under vacuum to remove all free radioligand. […] The radioactivity retained on the filters was then determined in a liquid scintillation counter (Packard Tri-Carb 1600 TR). […] For these receptors were also determined the […] and Ki parameters.
smiles,measurement,setting,value
"Cl.NCCc1c[nH]c2ccc(O)cc12 [5-HT, 5-hydroxytryptamine hydrochloride]",Ki,[1],189 nM
same,Ki,[2],2.46 nM
